# Data as given in PubChem BioAssay AID624267 (The Scripps Research Institute Molecular Screening Center, 2012).
# Protein sequences, listed by entry. Tags and fused reporters are not part of them.
# UniProt O43353, whole entry, looked up: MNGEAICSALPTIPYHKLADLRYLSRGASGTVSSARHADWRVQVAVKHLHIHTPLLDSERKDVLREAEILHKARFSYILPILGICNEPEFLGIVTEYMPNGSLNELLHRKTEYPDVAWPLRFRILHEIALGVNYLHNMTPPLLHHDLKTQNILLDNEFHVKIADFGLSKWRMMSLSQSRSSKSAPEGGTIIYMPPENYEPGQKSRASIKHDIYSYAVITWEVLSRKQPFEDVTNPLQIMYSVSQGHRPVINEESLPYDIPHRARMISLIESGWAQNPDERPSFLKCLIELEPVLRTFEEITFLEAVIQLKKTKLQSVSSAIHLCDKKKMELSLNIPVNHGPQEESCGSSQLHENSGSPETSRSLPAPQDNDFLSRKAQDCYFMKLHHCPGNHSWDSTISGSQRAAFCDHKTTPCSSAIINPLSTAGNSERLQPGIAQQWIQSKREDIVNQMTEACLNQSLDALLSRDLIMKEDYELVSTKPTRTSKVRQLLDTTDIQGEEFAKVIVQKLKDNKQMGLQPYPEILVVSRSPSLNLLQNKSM
# Only a part is listed here, and it is no random draw. Active and inactive are the calls of the source. No stated cut-off is given here; in the data, active means inhibition above about 21%; inactive means the rest.
# Target: Receptor-interacting serine/threonine-protein kinase 2 (Homo sapiens) (UniProt O43353)
# Assay: inhibitors of RIPK2 association with NOD2 – fluorescence, CHO cells, BLA complementation, primary screen (AID 624267);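 further: 0% = vehicle only and 100% = reference blocker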
# Conditions: CHO BLA complementation NOD2-RIPK2, CCF4 ratio; at 4.98 µM; active compounds read high
row,Compound,inhibition
1,CC(C)NC(=O)NP(=O)(Oc1ccccc1)Oc1ccccc1,inactive: -4.67%
2,CCN(CC)C(=S)SC(NC=O)C(Cl)(Cl)Cl (centres undefined),inactive: -3.9%
3,O=C(OC1CN2CCC1CC2)c1cccc2[nH]cnc12 (centres undefined),inactive: -2.32%
4,O=[N+]([O-])c1cc([N+](=O)[O-])c(-c2ccn[nH]2)s1,inactive: -5.85%
5,ClCCSc1nnc(-c2cccnc2)o1,inactive: -4.4%
6,COC(=O)C1(C)COP(=O)(N2CCCCCC2)OC1 (centres undefined),inactive: -3.41%
7,CC(C)c1ccc(OP(=O)(Nc2ccccn2)Oc2ccccc2F)cc1 (centres undefined),inactive: -29.6%
8,[N-]=[N+]=NC1CCCCC1NC(=O)c1cc([N+](=O)[O-])cc([N+](=O)[O-])c1 (centres undefined),inactive: -9.42%
9,Cc1ccc(OP(=O)(Nc2ccc([N+](=O)[O-])cn2)Oc2ccc(C)cc2)cc1,inactive: 0.49%
10,Cc1ccc2nc3c(c(C)c2c1)CC(C(Cl)Cl)S3 (centres undefined),inactive: -1.45%
11,C[As](=O)(O)c1cccc(C(=O)O)c1,inactive: 9.59%
12,O=[As](O)(c1ccc(O)cc1)c1ccccc1O,inactive: 5.7%
13,O=[N+]([O-])c1ccc(-c2cc([N+](=O)[O-])c(O)c([N+](=O)[O-])c2)cc1,inactive: -58.9%
14,COc1cc(C(=O)NCC2(N3CCOCC3)CCCCC2)ccc1OCC(C)C,inactive: -13.2%
15,O=[N+]([O-])c1cc(Oc2ccc([N+](=O)[O-])cc2C(F)(F)F)cc([N+](=O)[O-])c1,inactive: -0.68%
16,COc1ccc(N/C(=N/P(=O)(N2CCOCC2)N2CCOCC2)N2CCOCC2)cc1,inactive: -3.87%
17,O=P1(N(CCCl)CCCl)OCCCN1CCCl (centres undefined),inactive: -6.09%
18,O=P1(N(CCCl)CCCl)Nc2ccccc2N1,inactive: -0.4%
19,COc1ccc2nc(NP(=O)(c3ccccc3)c3ccccc3)sc2c1,inactive: 5.91%
20,COc1cc(I)ccc1[As](=O)(O)O,inactive: 0.8%
21,Cc1c2c(nc3ccccc13)SC(C(Cl)Cl)C2 (centres undefined),inactive: -1.27%
22,O=C(OC1CN2CCC1CC2)C12CC3CC(CC(C3)C1)C2 (centres undefined),inactive: -2.12%
23,Cc1cc(=O)[nH]c(N[N+](=O)[O-])n1,inactive: -1.77%
24,CCC(C)N(CC(C)C)C(=S)SC(NC(C)=O)C(Cl)(Cl)Cl (centres undefined),inactive: -1.91%
25,O=C(OC1CN2CCC1CC2)c1cccc([N+](=O)[O-])c1 (centres undefined),inactive: -3.11%

row,Compound,inhibition
1,CSc1ccc(Nc2c([N+](=O)[O-])cc([N+](=O)[O-])cc2[N+](=O)[O-])cc1,inactive: 3.63%
2,CCOC(=O)c1ccc(NC(=O)C(C)(CCl)SC)cc1 (centres undefined),inactive: 5.83%
3,O=C(O)C(=O)c1ccc(N(CCCl)CCCl)cc1,inactive: 0.51%
4,O=C(COc1ccccc1)OC1CN2CCC1CC2 (centres undefined),inactive: -8.78%
5,O=C(Nc1ccncc1[N+](=O)[O-])c1ccc([N+](=O)[O-])cc1[N+](=O)[O-],inactive: 2.79%
6,COP1(=S)c2c(C)nn(CCC#N)c2N=C(c2ccc(F)cc2)N1C (centres undefined),inactive: -7.33%
7,COC(=O)C1(C)COP(=O)(N2CCCC2)OC1 (centres undefined),inactive: -6.95%
8,O=P(Nc1ccccn1)(c1cccc2ccccc12)c1cccc2ccccc12,inactive: -4.35%
9,Cc1cc(SC(NC=O)C(Cl)(Cl)Cl)ncn1 (centres undefined),inactive: -2.95%
10,O=[N+]([O-])c1ccc(Nc2ccc(Oc3ccc([N+](=O)[O-])cc3[N+](=O)[O-])cc2)c([N+](=O)[O-])c1,inactive: 1.93%
11,CCOC(=O)Nc1cccc([As](=O)(O)O)c1,inactive: -6.05%
12,COP(=O)(OC)N1CC1c1ccccc1 (centres undefined),inactive: 4.76%
13,CCCCOc1ccc(C(=O)NCC2(N3CCCCC3)CCCCC2)cc1OC,inactive: 1.36%
14,Cc1cc(SC(NC(=O)c2ccccc2)C(Cl)(Cl)Cl)nc(C(C)C)n1 (centres undefined),inactive: -5.15%
15,CCOC(=O)Nc1ccc([As](=O)(O)O)c(O)c1,inactive: 3.16%
16,O=C(O)C(O)c1ccc(N(CCCl)CCCl)cc1 (centres undefined),inactive: 0.21%
17,CC1CCNP(=O)(N(CCCl)CCCl)O1 (centres undefined),inactive: -1.02%
18,Nc1cccc([As](=O)(O)c2ccccc2)c1,inactive: -2.99%
19,Cc1ccc(OCC(=O)OC2CN3CCC2CC3)cc1 (centres undefined),inactive: 0.88%
20,O=[As](O)(c1cccs1)c1cccs1,inactive: -6.59%
21,O=P1(Nc2ccc(Br)cn2)COc2ccccc2OC1,inactive: -8.02%
22,NS(=O)(=O)c1cccc(NC(=O)COC(=O)C(O)(c2ccccc2)c2ccccc2)c1,inactive: 2.35%
23,Cc1ccc(S(=O)(=O)N(CCCN)CCCc2c(C)nc(N)[nH]c2=O)cc1,inactive: -13.2%
24,O=P1(Nc2ncccn2)COc2ccccc2OC1,inactive: -1.86%
25,CN(C)C1(CNC(=O)c2ccc(S(C)(=O)=O)cc2)CCCCC1,inactive: -7.74%

row,Compound,inhibition
1,O=C(/C=C/c1ccccc1)OC1CN2CCC1CC2 (centres undefined),inactive: 5.92%
2,CCCC1OP(=O)(Nc2ccccc2)OCC1CC (centres undefined),inactive: -10.9%
3,Cc1nn(-c2ccccc2)c2c1P(=O)(N1CCOCC1)N(C)C(c1ccccc1)=N2 (centres undefined),inactive: 1.65%
4,CC1CCC(C(C)C)C(OP(=O)(Nc2ccccn2)c2ccccc2)C1 (centres undefined),inactive: 5.11%
5,Cc1ccc(C(=O)OC2CN3CCC2CC3)cc1 (centres undefined),inactive: -1.87%
6,CC(C)/C=N\N=C(\N)N[N+](=O)[O-],inactive: 4.89%
7,CC1(CBr)Cn2c(nc3ccccc3c2=O)S1 (centres undefined),inactive: -4.42%
8,COc1ccccc1CNC(=O)COC(=O)C(O)(c1ccccc1)c1ccccc1,inactive: 10.6%
9,O=P1(N(CCCl)CCCl)NCCC(C(F)(F)F)O1 (centres undefined),inactive: 7.31%
10,Clc1n[nH]nc1-c1nn[nH][15n]1,inactive: 2.84%
11,CC(C)(C)C(=O)NC(Sc1ncccn1)C(Cl)(Cl)Cl (centres undefined),inactive: 7.16%
12,O=P1(Nc2ccccn2)COc2ccccc2OC1,inactive: -10.6%
13,CCC1=CC2Cc3nc4ccc(Cl)cc4c(N)c3C(C1)C2 (centres undefined),inactive: 1.48%
14,CCOP(=O)(NC(=NC(C)c1ccccc1)NC(C)c1ccccc1)OCC (centres undefined),inactive: -12.3%
15,CCOP(=O)(Nc1ccc(C)cn1)OCC,inactive: -8.4%
16,CN(CCCl)Cc1cc(Cl)c(NC2=NCCN2)c(Cl)c1,inactive: 0.34%
17,COc1cc(C2NCCC3(OCCO3)C2(C)C)cc(OC)c1OC (centres undefined),inactive: -12.3%
18,CCOP(=O)(Nc1cccc2ccccc12)OCC,inactive: -6.06%
19,Cc1ccc(NCCc2c([N+](=O)[O-])cc([N+](=O)[O-])cc2[N+](=O)[O-])cc1,inactive: 4.05%
20,Nc1cccc2c([As](=O)(O)O)cccc12,inactive: 16.8%
21,CCCOP(=S)(Nc1nc(N)cc(=O)[nH]1)OCCC,inactive: 2.51%
22,Cc1cccc(OCC(=O)OC2CN3CCC2CC3)c1 (centres undefined),inactive: -2.71%
23,O=[As](O)(c1cccc(O)c1)c1cccc(O)c1,inactive: 5.44%
24,O=C(OC1CN2CCC1CC2)c1ccc(Cl)cc1 (centres undefined),inactive: 1.54%
25,O=[As](O)(O)c1cccnc1,inactive: 9.62%

row,Compound,inhibition
1,COc1cc(C(=O)NCC2(N3CCOCC3)CCCCC2)cc(Cl)c1OC(C)C,inactive: -2.8%
2,CS(=O)(=O)c1ccc(Cl)c(NC(=O)COC(=O)C(O)(c2ccccc2)c2ccccc2)c1,inactive: -17.2%
3,N#CCCN(C(=O)COC(=O)C(O)(c1ccccc1)c1ccccc1)c1ccc(F)cc1,inactive: 0.58%
4,CCOP1(=S)c2c(C)nn(CCC#N)c2N=C(c2ccc(F)cc2)N1C (centres undefined),inactive: 7.37%
5,CN(C(=O)Cc1ccccc1)[C@@H]1CC[C@]2(CCCO2)C[C@H]1N1CCCC1,inactive: -16.2%
6,O=[N+]([O-])c1ccc2c(c1)nnn2O,inactive: -10.8%
7,CN(C)C(=O)c1cc([N+](=O)[O-])cc2c1-c1c(cc([N+](=O)[O-])cc1[N+](=O)[O-])C2=O,active: 34.3%
8,CN(C(=O)Cc1ccc(Cl)c(Cl)c1)[C@H]1CC[C@@]2(CCCO2)C[C@@H]1N1CCCC1,inactive: -7.07%
9,NC(=O)Nc1ccc([As](=O)(O)O)cc1,inactive: 5.59%
10,Nc1ccccc1[As](=O)(O)c1ccccc1,inactive: 3.16%
11,O=C(O)COc1ccc([As](=O)(O)O)cc1[N+](=O)[O-],inactive: -7.58%
12,CCOP1(=S)c2c(C)nn(CCC#N)c2N=C(c2ccccc2F)N1C (centres undefined),inactive: 11.1%
13,O=P(Nc1nccs1)(Oc1ccccc1)Oc1ccccc1,inactive: 3.31%
14,O=P(Nc1nccs1)(c1ccccc1)c1nc2ccccc2s1 (centres undefined),inactive: 17.8%
15,CS(=O)(=O)c1cc([N+](=O)[O-])c2no[n+]([O-])c2c1,inactive: 11.2%
16,CC(NC(=O)COC(=O)C(O)(c1ccccc1)c1ccccc1)c1ccccc1 (centres undefined),inactive: 7.5%
17,Cc1ccccc1OP(=O)(Nc1ccccn1)Oc1ccccc1C,inactive: -8.47%
18,O=c1c2cc([N+](=O)[O-])ccc2[nH]c2c([N+](=O)[O-])cc([N+](=O)[O-])cc12,inactive: -2%
19,CN(C)C(=O)Oc1noc2ccccc12,inactive: 5.92%
20,O=C(OC1CN2CCC1CC2)c1ccccc1 (centres undefined),inactive: -3.84%
21,CCC(=O)N1C2C3N(C(=O)CC)C1C1N(C(=O)CC)C(C(N1C(=O)CC)N3C(=O)CC)N2C(=O)CC,inactive: -2.08%
22,COC(=O)c1cc2c(s1)N=C(c1ccccc1)N(C)P2(=O)N1CCOCC1 (centres undefined),inactive: -2.84%
23,CC(=O)NC(SC(=S)N(CC(C)C)CC(C)C)C(Cl)(Cl)Cl (centres undefined),inactive: 1.47%
24,Cc1ccc(OP(=O)(Nc2ccccn2)Oc2ccc(C)cc2)cc1,inactive: -4.4%
